Several values for one entry are separate records, joined by “and”; a condition that tells them apart may be missing. Identical values can stand only once. The list shows a part of the results, in another mix than the full data. Some results for these compounds are left out of this collection, so the calls shown say nothing about other tests.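 For each line, cells grew in 96-well plates with the test compound present at a single concentration for 48 hours.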 Activity calls are given as the source filed them. The calls were made as follows: active = growth percent below 10; inactive = the rest.
Legend:
Test in all cases: NCI-60 one-dose screen, 48 h (100 = growth as untreated, 0 = no growth, -100 = all killed)
Conditions in all cases: 10 µM
SK-MEL-2 melanoma = test system: SK-MEL-2 melanoma
SN12C renal = test system: SN12C renal
UO-31 renal = test system: UO-31 renal
TK-10 renal = test system: TK-10 renal
ACHN renal = test system: ACHN renal
CAKI-1 renal = test system: CAKI-1 renal
A498 renal = test system: A498 renal
HL-60(TB) leukemia = test system: HL-60(TB) leukemia
CCRF-CEM leukemia = test system: CCRF-CEM leukemia
EKVX NSCLC = test system: EKVX NSCLC

Measured: growth

Fc1cccc(CN(CCCl)CCCl)c1
inactive: SK-MEL-2 melanoma 102% | SN12C renal 87.5% | UO-31 renal 82.3% | TK-10 renal 99.4% | ACHN renal 86.4% | CAKI-1 renal 69.7% | A498 renal 90.1% | HL-60(TB) leukemia 84.8% | CCRF-CEM leukemia 70.6%

ClCCCCCC(CCl)NCCCl (configuration not stated)
inactive: SK-MEL-2 melanoma 112% | EKVX NSCLC 113% | SN12C renal 53.3% | UO-31 renal 75.8% | TK-10 renal 102% | ACHN renal 28.3% | CAKI-1 renal 51.5% | A498 renal 91.1% | HL-60(TB) leukemia 41.3% | CCRF-CEM leukemia 46.2%

COCc1c(CN(CCCl)CCCl)cnc(C)c1O
inactive: SK-MEL-2 melanoma 110% | EKVX NSCLC 110% | SN12C renal 97.3% | UO-31 renal 94% | TK-10 renal 105% | ACHN renal 102% | CAKI-1 renal 92.7% | A498 renal 81.3% | HL-60(TB) leukemia 91.2% | CCRF-CEM leukemia 80%

CC[N+](C)(C)Cc1cccc(Cc2ccccc2)c1OC(=O)N(C)C
inactive: SK-MEL-2 melanoma 126% | EKVX NSCLC 98.1% | SN12C renal 95.4% | UO-31 renal 85.1% | TK-10 renal 109% | ACHN renal 102% | CAKI-1 renal 100% | A498 renal 85.5% | HL-60(TB) leukemia 98.6% | CCRF-CEM leukemia 95.6%

CN(C)CCOC(=O)C(O)(c1ccccc1)c1ccccc1
inactive: SK-MEL-2 melanoma 120% | EKVX NSCLC 114% | SN12C renal 106% | UO-31 renal 88.8% | TK-10 renal 117% | ACHN renal 101% | CAKI-1 renal 97.9% | A498 renal 126% | HL-60(TB) leukemia 92.5% | CCRF-CEM leukemia 114%

ClCCN(CCCl)Cc1ccc(Cl)c(Cl)c1
inactive: SK-MEL-2 melanoma 108% | SN12C renal 100% | UO-31 renal 88.4% | TK-10 renal 98.3% | ACHN renal 100% | CAKI-1 renal 94.9% | A498 renal 116% | HL-60(TB) leukemia 85.4%

COc1ccc([N+](=O)[O-])cc1CN(CCCl)CCCl
inactive: SK-MEL-2 melanoma 122% | EKVX NSCLC 109% | SN12C renal 97.7% | UO-31 renal 87.9% | TK-10 renal 104% | ACHN renal 94.8% | CAKI-1 renal 72.5% | A498 renal 103% | HL-60(TB) leukemia 90.4% | CCRF-CEM leukemia 85.5%

CCCN(CCCl)CCCl
inactive: SK-MEL-2 melanoma 118% | SN12C renal 99.1% | UO-31 renal 93.2% | TK-10 renal 134% | ACHN renal 96.6% | CAKI-1 renal 90.4% | A498 renal 107% | HL-60(TB) leukemia 103%

COc1ccc(N=C=S)cc1CN(CCCl)CCCl
inactive: SK-MEL-2 melanoma 68.9% | EKVX NSCLC 85.7% | SN12C renal 52.5% | UO-31 renal 78% | TK-10 renal 78.6% | ACHN renal 41.9% | CAKI-1 renal 31.4% | A498 renal 84.7% | HL-60(TB) leukemia 20.6% | CCRF-CEM leukemia 27.1%

ClCCN(CCCl)C1c2ccccc2-c2ccccc21
inactive: SK-MEL-2 melanoma 82.2% | EKVX NSCLC 97.9% | SN12C renal 93.6% | UO-31 renal 86.8% | TK-10 renal 84.4% | A498 renal 81.1% | HL-60(TB) leukemia 53.2% | CCRF-CEM leukemia 59.3%

O=C(OCCN1CCCC1)C(O)(c1ccccc1)c1ccccc1
inactive: SK-MEL-2 melanoma 94.8% | EKVX NSCLC 104% | SN12C renal 94.3% | TK-10 renal 96.7% | ACHN renal 107% | CAKI-1 renal 86% | A498 renal 107% | HL-60(TB) leukemia 141% | CCRF-CEM leukemia 101%

N#CC(C#N)=Cc1ccccc1Cl
inactive: SK-MEL-2 melanoma 106% | SN12C renal 99.4% | UO-31 renal 93.7% | TK-10 renal 92.2% | ACHN renal 110% | CAKI-1 renal 106% | A498 renal 107% | CCRF-CEM leukemia 102%

ClCCN(CCCl)C1CCCCC1
inactive: SK-MEL-2 melanoma 103% | EKVX NSCLC 98.3% | SN12C renal 86.9% | UO-31 renal 90.5% | TK-10 renal 100% | ACHN renal 90.8% | CAKI-1 renal 86.5% | A498 renal 115% | HL-60(TB) leukemia 98.3% | CCRF-CEM leukemia 97.2%

CN(CCBr)CCBr
inactive: SK-MEL-2 melanoma 105% | SN12C renal 92.4% | UO-31 renal 88.8% | TK-10 renal 89.7% | ACHN renal 82.3% | CAKI-1 renal 70.4% | A498 renal 99.1% | HL-60(TB) leukemia 92% | CCRF-CEM leukemia 63.2%

ClCCN(CCCl)Cc1cc(Cl)cc(Cl)c1
inactive: SK-MEL-2 melanoma 103% | SN12C renal 60.2% | UO-31 renal 71% | TK-10 renal 105% | ACHN renal 69.2% | CAKI-1 renal 12.3% | A498 renal 78.6% | HL-60(TB) leukemia 25.5% | CCRF-CEM leukemia 22.2%

Cc1cc2nc(CN(CCCl)CCCl)[nH]c2cc1C
inactive: SK-MEL-2 melanoma 83.1% | EKVX NSCLC 125% | SN12C renal 77.7% | UO-31 renal 78.4% | TK-10 renal 119% | ACHN renal 66.7% | CAKI-1 renal 29.7% | A498 renal 76.8% | HL-60(TB) leukemia 61.2% | CCRF-CEM leukemia 46.5%

N#CC(C#N)=Cc1cccc(Br)c1
inactive: SK-MEL-2 melanoma 107% | EKVX NSCLC 96.7% | SN12C renal 102% | UO-31 renal 95.5% | TK-10 renal 111% | ACHN renal 108% | CAKI-1 renal 99.1% | A498 renal 94.1% | HL-60(TB) leukemia 95.8% | CCRF-CEM leukemia 95.1%

CCNCCCl
inactive: SK-MEL-2 melanoma 124% | SN12C renal 103% | UO-31 renal 89.6% | TK-10 renal 99.6% | ACHN renal 92.3% | CAKI-1 renal 107% | A498 renal 99.5% | HL-60(TB) leukemia 126% | CCRF-CEM leukemia 105%

ClCCN(CCCl)Cc1ccsc1Br
inactive: SK-MEL-2 melanoma 106% | SN12C renal 74.6% | UO-31 renal 80.5% | TK-10 renal 117% | ACHN renal 82.8% | CAKI-1 renal 61.7% | A498 renal 61.6% | HL-60(TB) leukemia 33% | CCRF-CEM leukemia 23.3%

CC(C)(C)N(CCCl)CCCl
inactive: SK-MEL-2 melanoma 96.4% | SN12C renal 98% | UO-31 renal 98% | TK-10 renal 95.8% | ACHN renal 91.4% | CAKI-1 renal 98.3% | A498 renal 110% | HL-60(TB) leukemia 85.2%

N#CC(C#N)=Cc1ccc(Br)cc1
inactive: SK-MEL-2 melanoma 111% and 101% | EKVX NSCLC 102% | SN12C renal 103% and 90.7% | UO-31 renal 92.7% and 85.5% | TK-10 renal 115% and 109% | ACHN renal 115% and 113% | CAKI-1 renal 99.7% and 107% | A498 renal 99% and 116% | HL-60(TB) leukemia 90.9% and 112% | CCRF-CEM leukemia 97.8% and 101%

BrCCN(CCBr)Cc1ccccc1
inactive: SK-MEL-2 melanoma 109% | EKVX NSCLC 87.2% | SN12C renal 107% | UO-31 renal 93.4% | TK-10 renal 117% | ACHN renal 94.3% | HL-60(TB) leukemia 55% | CCRF-CEM leukemia 88.1%

CC(=O)CI
inactive: SK-MEL-2 melanoma 107% | EKVX NSCLC 95.4% | SN12C renal 100% | UO-31 renal 90% | TK-10 renal 109% | ACHN renal 107% | CAKI-1 renal 98.9% | A498 renal 114% | HL-60(TB) leukemia 97.7% | CCRF-CEM leukemia 117%

CCOc1ccc([N+](=O)[O-])cc1CN(CCCl)CCCl
inactive: SK-MEL-2 melanoma 101% | EKVX NSCLC 97.2% | SN12C renal 93.5% | UO-31 renal 69% | TK-10 renal 86% | ACHN renal 96.1% | CAKI-1 renal 87.8% | A498 renal 90.1% | HL-60(TB) leukemia 99.9% | CCRF-CEM leukemia 98.8%

Reference: PubChem BioAssay (NCI)
